# scFv variants of Ab-14 (heavy chain) against a SARS-CoV-2 spike peptide

The measurements come from Li et al. 2023 (doi:10.1038/s41467-023-39022-2) through the FLAb antibody collection.

Antigen: PDVDLGDISGINAS, a 14-residue peptide of the SARS-CoV-2 spike HR2 region.

Parent: Ab-14, a human scFv built as VH, a 15-residue (Gly4Ser)3 linker, VL. Only the CDRs of the heavy chain vary.
VH: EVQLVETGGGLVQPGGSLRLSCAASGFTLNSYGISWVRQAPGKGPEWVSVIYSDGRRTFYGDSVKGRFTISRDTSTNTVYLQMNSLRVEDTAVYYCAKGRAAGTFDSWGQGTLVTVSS
VL: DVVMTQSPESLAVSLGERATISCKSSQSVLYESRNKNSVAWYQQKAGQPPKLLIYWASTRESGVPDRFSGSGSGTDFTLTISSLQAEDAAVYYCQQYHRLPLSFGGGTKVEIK

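Phage display of a naive human antibody library on the peptide gave the parent. This is the validation round: designs drawn from the data on random variants, tested in the same kind of assay. Group labels follow the data file (Ctrl: baseline library sampled from a position-specific scoring matrix, with some repeated check sequences; En: ensemble of fine-tuned language models; HC: hill climbing; Gen: genetic algorithm; Gibbs: Gibbs sampling; a sequence that several methods proposed may carry one label only). The assay is AlphaSeq: two haploid yeast populations carry antibody and antigen on their surface. Mating (16 h, 30 °C) was followed by selection of diploids and sequencing of their barcodes. Each replicate has its own calibration line, from reference interactions of the BCL2 family. The assay was run in six technical replicates.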

Variants are written as CDR1, CDR2 and CDR3 of the heavy chain (limits as in the source). Parent: GFTLNSYGIS, VIYSDGRRTFYGDSVK, GRAAGTFDS. Variants here have more than six changes. Scale: log10 of Kd in nM, estimated from mating counts; low values are strong binders. "nd" means that the variant was in the library but no mating with the target was seen in that replicate; the authors take this as a sign of poor binding, and no number exists. A sequence measured in both rounds can read differently, since the two assays cover different ranges. As a blank, each scFv also met three strains without target: over all heavy chain designs, 1% of these pairings were detected, typically at 2.08 and seldom below 0.84. In the paper, a design with two or fewer of six values counts as a poor binder.

For GFDLDQYGIS | VIYADGKRSYYADSVK | GHEGGILYV [En_Gibbs], the assay gave nd, nd, nd, nd, nd, nd. The variant GFDLNEYGIS | VIYADGVRTAYTDSVK | GQNAGTFDI [En_Gen] gave 0.14, -0.16, -0.02, 0.04, 0.25, 0.06. The variant GFDLEDYGIS | VIYADGMRTAYIDSVK | GEAAGTFDS [En_HC] showed 0.09, 0.20, 0.07, 0.12, -0.50, 0.16. The variant GFQLEEYGIS | VIYADGFRASYTDDVK | GQNGSVNLR [En_Gibbs] showed nd, nd, 2.07, nd, nd, nd. For GFDLNEYGIS | VIYADGMRTYYADSVK | GEVAGTFDI [En_Gen], the assay gave 0.07, -0.31, 0.02, -0.35, -0.44, -0.17. The variant GFDLGEYGVS | VIYADGTRAQYASKVK | GNFSGNITV [En_Gibbs] showed nd, nd, nd, nd, nd, nd. With GADIQEYGIS | VIYADGIRTAYANNVK | GKYGSQFDE [En_Gibbs] the result was 1.41, nd, 1.34, 0.16, 0.94, 1.13. For GFDLNEYGIS | VIYADGMRTAYADDVK | GQTAGTFDI [En_Gen], the assay gave -0.01, -0.33, -0.34, -0.05, -0.02, -0.10.

The variant GFDLDEYGIS | VIYADGQRTAYADSVK | GENAGTFDI [En_Gen] gave -0.27, -0.76, -0.52, -0.80, -0.50, -0.51. With GFSLDEYGIS | VIYADGLRSFYQDKVK | GELALSLDT [En_Gibbs] the result was nd, nd, nd, nd, 2.47, nd. With GFDLNEYGIS | VIYADGKRTAYADSVK | GNAAGTFDV [En_Gen] the result was -0.08, 0.24, -0.69, 0.19, -0.70, -0.23. The variant GFDLNEYGIS | VIYADGMRTAYSDSVK | GNVAGTFDS [En_Gen] showed -0.05, -0.46, -0.32, -0.58, -0.54, -0.33. For GFQLDEYGIS | VIYADGMRTAYSDSFK | GVVTTKMGI [En_Gibbs], the assay gave nd, nd, nd, nd, nd, nd. The variant GFDLNEYGIS | VIYADGRRSFYADSVK | GQLAGTFDI [En_HC] showed -0.55, -1.22, -1.25, -1.45, -1.41, -1.03. The variant GFALDEYGIS | VIYADGKRSAYHNKVK | GGYSFLKGI [En_Gibbs] showed nd, nd, nd, nd, nd, nd. For GFDLNEYGIS | VIYADGRRTFYADSVK | GNVAGTFTQ [En_HC], the assay gave -0.64, -0.57, 2.22, -0.67, -0.86, -0.63.

The variant GFDLDEYGIS | VIYADGRRTAYADDVK | GEVAGTFDT [En_Gen] showed -0.26, 0.26, 0.25, -0.83, 0.02, -0.22. With GFHLTEYGIS | VIYADGKRSVYTNDVK | GELGLGFVI [En_Gibbs] the result was nd, nd, nd, nd, nd, nd. The variant GFGIGEYGIS | VIYADGRRTFYSDDVK | GNMIVAGVD [En_Gibbs] showed 1.02, 1.11, 1.52, 1.81, 1.78, 1.13. The variant GFDIEEYGIS | VIYADGIRQAYKDSVK | GGNVGRFSV [En_Gibbs] showed nd, nd, nd, nd, nd, nd. The variant GFDLNEYGIS | VIYADGRRTAYADSVK | GGNAGTFDL [En_Gen] showed 0.00, -0.26, -0.48, -0.68, -0.78, -0.58. The variant GFDLDEYGIS | VIYADGMRTVYADSVK | GNIAGTFDS [En_HC] showed 0.25, 0.41, -0.10, -0.02, -0.26, 0.24. The variant GFDLNEYGIS | VIYADGMRTAYVDKVK | GENAGTFDV [En_Gen] showed -0.88, -1.22, -0.90, -1.34, -0.87, -0.47. The variant GFDLNEYGIS | VIYADGMRTYYADSVK | GNNAGTFDI [En_Gen] gave 0.99, 1.17, 1.18, 0.71, 0.50, 0.78.

For GFDLDEYGIS | VIYADGVRTYYADSVK | GNVAGTFDV [En_Gen], the assay gave -1.28, -1.59, 0.31, -1.25, -0.40, -0.16. For GFDLNEYGIS | VIYADGQRTAYADNVK | GQVAGTFDV [En_Gen], the assay gave -0.27, -0.68, -0.68, -0.15, 0.81, 0.35. The variant GFNLNEYGIS | VIYADGKRTAYSDSVK | GEVAGTFDV [En_HC] gave -0.47, -0.95, -0.31, -0.25, -0.61, -0.56. For GFDLQEYGIS | VIYADGKRRAYENKVK | GQSGSSVVI [En_Gibbs], the assay gave nd, nd, nd, nd, nd, nd. With TFQINSYGIS | VIYSDGRRLFYSDSVK | GAEAGTFDS [Ctrl] the result was nd, nd, nd, nd, nd, nd. The variant GMDLNEYGIS | VIYADGLRTAYINAVK | GKQSVIVGH [En_Gibbs] showed nd, nd, nd, nd, nd, 3.06. The variant GFDLNEYGIS | VIYADGMRTFYADSVK | GQLAGTFDF [En_HC] gave -0.96, -0.81, -0.91, -1.28, -1.27, -1.08. For GFDLDEYGIS | VIYADGRRTYYADSVK | GQNAGTFDV [En_HC], the assay gave -1.10, -0.98, -1.49, -1.53, -1.69, -1.19.

The variant GFDLDEYGIS | VIYADGVRTAYADKVK | GENAGTFDV [En_Gen] showed -0.20, -0.62, -0.24, -0.51, 0.25, -0.60. With GFDLEEYGIS | VIYADGKRTAYADSVK | GNVAGTFDV [En_Gen] the result was -0.23, -0.61, 0.59, -0.41, -0.26, -0.10. For GYDLVEYGIS | VIYADGQRTAYADTVK | GHHGGIFFM [En_Gibbs], the assay gave nd, nd, nd, nd, nd, nd. The variant GDSLAEYGIS | VIYADGMRSKYSDAFK | GQVAGYFGV [En_Gibbs] gave nd, nd, nd, nd, nd, nd. The variant GFDLNEYGIS | VIYADGKRTAYSDSVK | GNVAGTFDQ [En_Gen] showed 0.10, -0.24, -0.57, -0.40, -0.47, -0.19. The variant GFDLNEYGIS | VIYADGRRTFYSDSVK | GVNAGTFDV [En_HC] gave 0.64, -0.23, -0.47, 0.28, 1.01, 0.05. The variant GFDLNEYGIS | VIYADGMRTAYADSVK | GSNAGTFDL [En_Gen] showed -0.26, -0.31, -0.15, -0.32, 0.03, 0.14. With GFNLNEYGIS | VIYADGMRTAYADSVK | GEVAGTFDV [En_Gen] the result was 0.46, 0.52, 0.15, nd, 1.96, 0.04.

The variant GFDLDEYGIS | VIYADGQRTAYADKVK | GNNAGTFDV [En_Gen] gave 0.00, -0.42, -0.11, 0.47, -0.34, 0.26. The variant GFNLNEYGIS | VIYADGRRTFYADKVK | GNAAGTFDV [En_HC] gave -0.45, -0.71, -0.65, -0.69, -0.80, -0.65.

Again, the first 3 entries without any signal:

GFDLDQYGIS | VIYADGKRSYYADSVK | GHEGGILYV [En_Gibbs]: nd, nd, nd, nd, nd, nd.
GFDLGEYGVS | VIYADGTRAQYASKVK | GNFSGNITV [En_Gibbs]: nd, nd, nd, nd, nd, nd.
GFQLDEYGIS | VIYADGMRTAYSDSFK | GVVTTKMGI [En_Gibbs]: nd, nd, nd, nd, nd, nd.